Experimental data published in the NIST ThermoML archive (doi:10.1021/je3010535).
± gives the expanded uncertainty stated by the source.

Assay: Henry's Law constant (molality scale); of the first substance listed, at infinite dilution; xn = mol fraction of the nth substance listed
Details: Liquid, Chromatography, x1 = 0

- Henry's Law constant (274.15 K): 705 ± 210 kPa·kg/mol
- Henry's Law constant (313.15 K): 1720 ± 520 kPa·kg/mol
- Henry's Law constant (326.15 K): 2670 ± 800 kPa·kg/mol
SMILES: CCl [chloromethane] + O
